Molecular target: human PDE10A2 (Homo sapiens (Human), UniProt Q9Y233)
Assay: PDE10A enzyme inhibition, PDE IMAP TR-FRET assay
Assay type: biochemical
Details: FAM-cAMP substrate
Method: An IMAP TR-FRET assay was used to analyze the enzyme activity (Molecular Devices Corp., Sunnyvale Calif.). 10 μL of serial diluted PDE10A (BPS Bioscience, San Diego, Calif.) or tissue homogenate was incubated with equal volumes of diluted fluorescein labeled cAMP or cGMP for 90 min in 384-well Polypropylene assay plates (Greiner, Monroe, N.C.) at room temperature. After incubation, the reaction was stopped by adding 55 μL of diluted binding reagents and was incubated for 4 hours to overnight at room temperature. The plates were read on an Envision (Perkin Elmer, Waltham, Mass.) for time resolved fluorescence resonance energy transfer. The data were analyzed with Genedata Screener® (Lexington, Mass.).
To check the inhibition profile, 0.2 μL of serial diluted compounds were incubated with 10 μL of diluted PDE10 enzyme (BPS Bioscience, San Diego, Calif.) or tissue homogenate in a 384-well Polypropylene assay plate (Greiner, Monroe, N.C.) for 60 min at room temperature. […] The reaction was stopped by adding 55 μL of diluted binding reagents and plates were read on an Envision (Perkin Elmer, Waltham, Mass.) for time resolved fluorescence resonance energy transfer. The data were analyzed with Genedata Screener® (Lexington, Mass.). […]
The PDE IMAP assay was conducted in a 384-well black Greiner polypropylene plate (Sigma, St. Louis, Mo.). […] Fluorescence signals were measured at 520 nm and 485 nm. […]

By UniProt entry, the sequences of proteins in these tests, tags left out. Residues count along the entry.
UniProt Q9Y233, 267-1055: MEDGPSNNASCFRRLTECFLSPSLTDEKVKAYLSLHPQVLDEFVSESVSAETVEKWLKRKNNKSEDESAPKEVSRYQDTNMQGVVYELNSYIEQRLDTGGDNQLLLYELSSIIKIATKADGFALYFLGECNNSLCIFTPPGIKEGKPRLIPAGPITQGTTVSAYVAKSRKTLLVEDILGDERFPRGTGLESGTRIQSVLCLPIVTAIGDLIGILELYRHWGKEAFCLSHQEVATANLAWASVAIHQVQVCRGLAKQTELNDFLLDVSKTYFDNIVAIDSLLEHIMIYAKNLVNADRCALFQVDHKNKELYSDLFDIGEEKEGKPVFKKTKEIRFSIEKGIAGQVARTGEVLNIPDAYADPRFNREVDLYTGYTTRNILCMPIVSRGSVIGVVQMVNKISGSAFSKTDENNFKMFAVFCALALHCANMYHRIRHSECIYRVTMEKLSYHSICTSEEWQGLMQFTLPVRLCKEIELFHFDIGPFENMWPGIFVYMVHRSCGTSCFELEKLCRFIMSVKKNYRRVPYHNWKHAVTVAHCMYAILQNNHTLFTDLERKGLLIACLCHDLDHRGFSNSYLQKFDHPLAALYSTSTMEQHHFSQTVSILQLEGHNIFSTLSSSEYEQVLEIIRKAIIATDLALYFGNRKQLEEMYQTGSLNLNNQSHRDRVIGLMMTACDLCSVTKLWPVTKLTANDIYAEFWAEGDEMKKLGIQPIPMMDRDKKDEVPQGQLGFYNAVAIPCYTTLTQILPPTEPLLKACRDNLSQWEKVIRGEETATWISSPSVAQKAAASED

CNC(=O)c1cccc(-c2nccnc2C2CN(c3ccc4ccccc4n3)C2)c1 [Compound 17, N-methyl-3-(3-(1-(quinolin-2-yl)azetidin-3-yl)pyrazin-2-yl)benzamide, reference compound]
IC50: 2 nM
